Target: Endothelin-1 receptor (Rattus norvegicus, UniProt P26684)
Assay: Ability to inhibit binding of [125I]ET1 to membranes prepared from A10 rat thoracic aorta smooth muscle Endothelin A receptor
Format: tissue-based

The chains behind the UniProt entries cited, without tags or fusion partners.
UniProt P26684, whole entry: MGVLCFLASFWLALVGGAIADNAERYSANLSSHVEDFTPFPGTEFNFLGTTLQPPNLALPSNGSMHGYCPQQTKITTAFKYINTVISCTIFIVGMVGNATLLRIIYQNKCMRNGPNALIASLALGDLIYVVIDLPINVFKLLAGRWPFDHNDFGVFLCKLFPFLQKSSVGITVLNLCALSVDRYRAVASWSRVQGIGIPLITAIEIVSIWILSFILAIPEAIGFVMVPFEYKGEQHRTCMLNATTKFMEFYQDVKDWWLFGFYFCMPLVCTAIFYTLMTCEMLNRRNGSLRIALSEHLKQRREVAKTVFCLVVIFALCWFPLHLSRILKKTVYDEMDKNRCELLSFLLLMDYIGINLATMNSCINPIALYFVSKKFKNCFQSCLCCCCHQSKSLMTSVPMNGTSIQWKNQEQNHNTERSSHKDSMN

- Ki: 5.9 µM
Structure (SMILES): Cc1noc(NS(=O)(=O)c2ccccc2N)c1C

Reference: ChEMBL document CHEMBL1131435, “Biphenylsulfonamide endothelin antagonists: structure-activity relationships of a series of mono- and disubstituted analogues and pharmacology of the orally active endothelin antagonist 2'-amino-N- (3,4-dimethyl-5-isoxazolyl)-4'-(2-methylpropyl)[1, 1'-biphenyl]-2-sulfonamide (BMS-187308)” (J Med Chem, 1998)
